# Antibody variant affinities, Ab-14 heavy chain, assay B

Values reported by Li et al. 2023, doi:10.1038/s41467-023-39022-2 (FLAb copy).

Target: peptide PDVDLGDISGINAS, taken from heptad repeat 2 (HR2) of SARS-CoV-2 spike.

The variants keep the light chain, the linker and the frameworks of Ab-14 (scFv order VH, the linker GGGGSGGGGSGGGGS, VL).
VH: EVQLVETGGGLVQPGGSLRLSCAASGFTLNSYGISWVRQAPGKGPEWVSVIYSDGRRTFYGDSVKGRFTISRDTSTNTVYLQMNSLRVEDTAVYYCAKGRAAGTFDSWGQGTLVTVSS
VL: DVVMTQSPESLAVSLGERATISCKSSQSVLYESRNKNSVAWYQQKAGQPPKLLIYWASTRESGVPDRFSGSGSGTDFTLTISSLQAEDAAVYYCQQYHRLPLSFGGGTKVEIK

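Phage display of a naive human antibody library on the peptide gave the parent. This is the validation round: designs drawn from the data on random variants, tested in the same kind of assay. Group labels follow the data file (Ctrl: baseline library sampled from a position-specific scoring matrix, with some repeated check sequences; Rand: our label for a block that the file lists under HC and that is probably the random mutants of the ten best first-round binders; En: ensemble of fine-tuned language models; GP: Gaussian process model; GPLM: also part of the Gaussian process libraries; HC: hill climbing; Gen: genetic algorithm; Gibbs: Gibbs sampling; a sequence that several methods proposed may carry one label only). The assay is AlphaSeq: two haploid yeast populations carry antibody and antigen on their surface. The frequency of each diploid, read from paired DNA barcodes, reflects how well the two displayed proteins bind. Scores were corrected for input abundance and mapped to Kd with protein pairs of known affinity run in the same pool. There are six technical replicates.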

The parent's heavy chain CDRs are GFTLNSYGIS, VIYSDGRRTFYGDSVK, GRAAGTFDS; each variant's own CDRs replace them letter for letter.
Scale: log10 of Kd in nM, estimated from mating counts; low values are strong binders.
Averages over replicates are reported, and they cover detected replicates only.
"nd" means that the variant was in the library but no mating with the target was seen in any replicate; the authors take this as a sign of poor binding, and no number exists.
The parent sequence was in this pool as ten entries: three were never detected, three once, and four in most replicates, with averages from 0.34 to 2.37.
In the paper, a design with two or fewer of six values counts as a poor binder.
Background: pairings of all heavy chain designs with three empty control strains gave a value in 1% of cases (median 2.08, 5th percentile 0.84). Values in that range, when seen in few replicates, are hard to tell from nonspecific mating.
The range of this assay differs from that of the first round, and the authors advise against merging the two.

| CDR-H1 | CDR-H2 | CDR-H3 | group | mean, log10 nM | detected |
|---|---|---|---|---|---|
| GFSLNSYGIS | VIYSDGRRTFYTDSVK | GWTAGTFDS | GPLM_Gen | 0.41 | 6/6 |
| GFTLNSYGIS | VIYSDGRRTFYGDSVA | GRAAGTFDS | Ctrl | 0.96 | 1/6 |
| GFDLNEYGIS | VIYADGSRSYYADNVK | GVMNIMMEV | En_Gibbs | 1.58 | 1/6 |
| GFDIEEYGIS | VIYADGERTSYSNAVK | GNMAGTFLI | En_Gibbs | 0.67 | 6/6 |
| GFDLNEYGIS | VIYADGMRTAYADKVK | GNTAGTFDV | En_Gen | -0.55 | 6/6 |
| GTTLNSYGIS | VIYADGRRTFYGDSVK | GRAKGTFDS | Ctrl | nd | 0/6 |
| GNTLNSYGIS | VIYSDGRRQFYGDSVK | GRAAGTFDS | Ctrl | nd | 0/6 |
| GFALNSYGIS | VIYADGRRTFYGDSVR | GRAAGTFDS | Ctrl | 0.35 | 6/6 |
| KFYLNDYGIS | VIYSDGRRTFYGDSVK | GRTAGTFDS | GP_Gibbs | nd | 0/6 |
| GFDLDEYGIS | VIYADGMRTVYADSVK | GNVAGTFDQ | En_Gen | -0.08 | 6/6 |
| GFELNSYGIS | VIYSDGRRTFYTDSVK | GMEAGTFDS | GP_HC | 0.40 | 6/6 |
| GFELNEYGIS | VIYSDGRRTFYADSVK | GRAAGTFDS | GPLM_Gen | 0.30 | 6/6 |
| GFDLNEYGIS | VIYADGRRTAYADSVK | GNTAGTFDI | En_Gen | -0.50 | 6/6 |
| GFTLNSYGVS | VIYSDGRRTFYGDSVK | GRACFGFDS | Ctrl | 1.33 | 4/6 |
| GFDLNEYGIS | VIYADGQRTFYADSVK | GEAAGSFDQ | En_HC | -0.22 | 6/6 |
| GDNINEYGIS | VIYADGLRKQYSENVK | GYLAGTLDE | En_Gibbs | 2.93 | 1/6 |
| KFDLNSYGIS | VIYSDGRRTFYDDSVK | GKTAGTFDS | GP_Gen | 0.50 | 6/6 |
| GFTLNSYGIS | VIYSDGRRTFYGDSVK | GQAAGTYDS | Ctrl | nd | 0/6 |
| GNSLDEYGIS | VIYADGMRTAYTDDVK | GLVAGTLVD | En_Gibbs | 1.33 | 6/6 |
| GFTLNSYGIS | VIYSDGLRTFYGDSVK | GRAAGTFDD | Ctrl | 1.60 | 2/6 |
| GFPLNEYGIS | VIYSDGRRTEYGDSVK | GDAAGTFDS | Ctrl | 1.96 | 3/6 |
| NFTLESYGIS | VIYADGRRTFYGDSVK | GRAAGTFMS | GP_HC | 2.46 | 3/6 |
| KFDIEHYGIS | VIYADGKRTGYSNAVK | GWQAGTFNT | En_Gibbs | -0.26 | 6/6 |
| YFTLNSKGIS | VIYSDMRRTFYSDSVK | MRAGGTFDS | Rand | nd | 0/6 |
| GFDLEKYGIS | VIYADGIRMSYADNVK | GVYSGTAYV | En_Gibbs | nd | 0/6 |
| KFDLNSYGIS | VIYSDGKRTFYKDSVK | GRTAGTFDS | GP_Gibbs | 1.78 | 6/6 |
| GFDLNSYGIS | VIYSDGRRTFYVDEVK | GRTAGTFDS | GP_Gen | 0.13 | 6/6 |
| GFDLNEYGIS | VIYADGKRTFYTDSVK | GNVAGTFDV | En_Gen | -0.61 | 6/6 |
| GVNLDEYGIS | VIYADGVRQHYTDSVK | GTLGDFGVV | En_Gibbs | 2.14 | 2/6 |
| GFLLNSYGIS | VIYSDGRNTFYSDSVK | GRAGGTFDS | Rand | nd | 0/6 |
| GFDLDEYGIS | VIYADGMRTAYADDVK | GEVAGTFDT | En_Gen | -0.26 | 6/6 |
| GFNLSEYGIS | VIYADGNRTYYAPNVK | GQFNDVLNM | En_Gibbs | 1.85 | 1/6 |
| GNNLDEYGIS | VIYADGQRSAYAQDVK | GETGDNAFV | En_Gibbs | nd | 0/6 |
| GFTINSYGSS | VIYSDGRRTFYKDSVK | GRAAQTFDS | Ctrl | nd | 0/6 |
| GFTLNSYGIS | VIYSDGRRTFYGDDVK | GEAAGTFDS | GPLM_Gibbs | 1.40 | 6/6 |
| GFDLNEYGIS | VIYADGRRTFYADSVK | GNAAGTFDV | En_HC | 0.65 | 6/6 |
| GFTLNSYGIS | VIYSDGLRTFYHDSVK | GKTAGTFDS | GP_Gibbs | 0.64 | 6/6 |
| GFTLNKYGIS | VIYADGRRTFYQDSVK | GRAAGTTDS | Ctrl | nd | 0/6 |
| MFTLNSYGIS | VIYSDGRRTFYGDSVK | GTAAGTGDS | Ctrl | nd | 0/6 |
| GFVLNEYGIS | VIYSDGRRTFYGDSVK | GRHAGTFDS | GPLM_Gen | 1.94 | 5/6 |
| GFDLNEYGIS | VIYADGQRTFYADSVK | GEAGGTFDV | En_HC | 0.14 | 6/6 |
| GFTLNSYGIS | VIYSDGRRTFYGNSVR | GRAAGTFDQ | Ctrl | nd | 0/6 |
| GFVLNSYGIS | VIYSDGRRTFYGDSVK | GQAEGTFDS | Ctrl | nd | 0/6 |
| GFTLNSYGIS | VIYSDGRRTAYGDSVK | GYAAGTFDS | Ctrl | 1.01 | 6/6 |
| GFTLNMYGIS | VIYSDGRRTQYADSVK | GRAAGTFDS | GP_HC | 1.84 | 5/6 |
| GFQLDEYGIS | VIYADGVRTFYADSVK | GEVAGTFDV | En_HC | -0.63 | 6/6 |
| GFDLNEYGIS | VIYADGKRTAYTDSVK | GEVAGTFDV | En_Gen | -0.48 | 6/6 |
| GFTLNSYGIS | VIYSDTTRTFYSDSVK | GRWGGTFDA | Rand | nd | 0/6 |
| SFDLNSYGIS | VIYSDGRRTFYADSVK | GNAAGTFDS | GP_Gen | 0.60 | 5/6 |
| GFDLNSYGIS | VIYSDGRRTFYGDSVK | GHVAGTFDS | GPLM_Gibbs | 0.13 | 6/6 |
| GFDLNEYGIS | VIYADGRRTYYADSVK | GNEAGTFDV | En_Gen | -0.11 | 6/6 |
| GFTLNSYGIS | VIYADGRRTFYADSVK | GRAAGTSDS | Ctrl | 1.88 | 1/6 |
| GFGLNSYGIS | VIYSDGMRTFYGDSVK | GRAAGTSDE | Ctrl | 3.74 | 1/6 |
| GFDLNEYGIS | VIYADGMRTKYSESVK | GTGDGSFQL | En_Gibbs | 0.87 | 6/6 |
| GFHLNSYGIS | VIYSDGRRTFYVDSVK | GRTAGTFDS | GPLM_Gibbs | 0.90 | 1/6 |
| GFDLNSYGIS | VIYSDGRRTFYDDSVK | GRTAGTFDD | GP_Gibbs | 0.46 | 6/6 |
| GFQLNEYGIS | VIYSDGRRTFYGDQVK | GQTAGTFDS | GP_Gen | -0.32 | 2/6 |
| GFTLNSYGIS | VIYSDGRRTFYNDSVK | GKAAGTFDS | Ctrl | nd | 0/6 |
| GFDLNEYGIS | VIYADGLRTAYTDSVK | GEFAGTFDV | En_HC | -0.51 | 6/6 |
| GFDLDEYGIS | VIYADGVRTAYTDSVK | GGNAGTFDV | En_HC | -0.33 | 6/6 |
| GFGLNEYGIS | VIYSDGRRTFYQDSVK | GRTAGTFDS | GPLM_HC | 0.04 | 6/6 |
| GFTLNEYGIS | VIYSDGRRTFYGDSVK | GRAAVTTDQ | Rand | 1.03 | 1/6 |
| GFDLNEYGIS | VIYADGRRTAYGDSVK | GTNAGTFDQ | En_HC | -0.07 | 6/6 |
| GFGLNSYGIS | VIYSDGRRTFYYDSVK | GRLAGTFDS | Ctrl | nd | 0/6 |
| GFTLNDYGIS | VIYSDGKRTFYGDSVK | GQNAGTFDS | Ctrl | 1.02 | 6/6 |
| GFNLDEYGIS | VIYADGHRTAYTNKVK | GGFSMISVT | En_Gibbs | nd | 0/6 |
| GFTLNEYGIS | VIYSDGHRTFYSDSVK | GQAAGTFDS | GP_HC | 0.17 | 6/6 |
| GFQLNKYGIS | VIYSDGRRTFYGDSVK | GRHAGTFDS | GP_HC | 2.52 | 1/6 |
| GDSLNEYGIS | VIYADGQRSYYANSVK | GEVDGLFSQ | En_Gibbs | nd | 0/6 |
| GFDLNEYGIS | VIYADGRRTFYVDSVK | GEIAGTFDV | En_HC | -0.25 | 6/6 |
| GFALNSYGIS | VIYSDGRRTFYQDSVK | GEAAGTFDS | GP_Gen | 0.56 | 6/6 |
| GFDLDEYGIS | VIYADGMRTFYADSVK | GNVAGTFLS | En_HC | 0.09 | 6/6 |
| GFDLNEYGIS | VIYADGMRTAYADDVK | GETAGTFDT | En_Gen | -0.52 | 6/6 |
| GFSLNSYGIS | VIYSDGRRTFYADRVK | GRNAGTFDS | GP_Gen | 1.03 | 6/6 |
| GFTLDSYGIS | VIYSDGRRTFYQDSVK | GRAAGTFDR | GP_HC | 0.94 | 2/6 |
| GFDLNEYGIS | VIYADGVRTVYADSVK | GNNAGTFDI | En_Gen | -0.84 | 6/6 |
| GFSLNSYGIS | VIYSDGRRTFYGDSVK | GEAAGTFDV | GPLM_Gen | 0.66 | 6/6 |
| GDSLDEYGIS | VIYADGQRVQYVDPFK | GEQAGNVDV | En_Gibbs | nd | 0/6 |